Source: patent US12168646B2, “Aryl hydrocarbon receptor agonists and uses thereof” (NEXYS THERAPEUTICS, INC., priority 2022, dated 2024)

Target: T1, AhR (Homo sapiens, UniProt P35869)
T1 construct: HT29-Lucia AhR cells were purchased from Invivogen (cat #ht21-ahr); host or cells: HT29-Lucia AhR cells
T1 sequence (P35869 11-848): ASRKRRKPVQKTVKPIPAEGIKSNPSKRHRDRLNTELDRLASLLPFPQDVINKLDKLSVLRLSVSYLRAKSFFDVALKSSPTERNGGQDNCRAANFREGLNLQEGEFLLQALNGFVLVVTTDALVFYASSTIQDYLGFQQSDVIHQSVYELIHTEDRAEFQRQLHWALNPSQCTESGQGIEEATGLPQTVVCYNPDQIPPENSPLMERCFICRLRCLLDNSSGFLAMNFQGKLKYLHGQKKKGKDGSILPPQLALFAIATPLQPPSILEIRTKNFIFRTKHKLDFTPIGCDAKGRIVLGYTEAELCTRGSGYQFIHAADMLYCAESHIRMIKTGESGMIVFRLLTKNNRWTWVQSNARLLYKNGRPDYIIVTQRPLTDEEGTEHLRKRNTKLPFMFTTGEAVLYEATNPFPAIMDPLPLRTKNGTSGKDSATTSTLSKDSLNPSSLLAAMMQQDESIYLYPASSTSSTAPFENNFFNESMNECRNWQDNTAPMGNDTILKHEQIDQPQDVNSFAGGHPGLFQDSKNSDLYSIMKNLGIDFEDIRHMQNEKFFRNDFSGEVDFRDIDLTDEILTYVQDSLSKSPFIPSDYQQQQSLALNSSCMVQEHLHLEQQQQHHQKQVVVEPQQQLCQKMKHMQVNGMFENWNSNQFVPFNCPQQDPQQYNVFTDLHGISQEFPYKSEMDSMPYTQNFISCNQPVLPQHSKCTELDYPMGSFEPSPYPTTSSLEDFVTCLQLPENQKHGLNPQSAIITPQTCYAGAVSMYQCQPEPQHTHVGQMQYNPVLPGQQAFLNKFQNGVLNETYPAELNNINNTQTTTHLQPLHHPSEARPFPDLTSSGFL
Assay: HT29 AhR Reporter Assay (HT29-Lucia AhR cells, QUANTI-Luc luminescence)
Assay type: cell-based
Method: Biological Data 1: HT29 AhR Reporter Assay HT29-Lucia AhR cells were purchased from Invivogen (cat #ht21-ahr). […] The cell suspension was removed from growth medium and rinsed gently with pre-warmed PBS (10 mL). Pre-warmed Trypsin (1 mL) was added, and cells were held at 30° C. for about 5 min and then detached by pipette. The dissociated cell clumps were gently pipetted up and down. The cells were resuspended in pre-warmed detection medium (DMEM, 10% FBS (30 min at 56° C.), 100 U/ml penicillin, 100 μg/ml streptomycin, and test article or vehicle) and counted. A cell suspension of ˜500,000 cells/mL in Detection medium was prepared. […] Samples (20 μL/well) were pipetted into a 96-well white (opaque), and QUANTI-Luc™ (50 μL/well) was added. The plate was gently tapped and then read in a luminometer (0.1 s reading time).

In the case of `Nc1cccc(-c2ccnc(Nc3ccc(C(F)(F)F)cc3)n2)c1` [Example 2, 4-(3-aminophenyl)-N-(4-(trifluoromethyl)phenyl)pyrimidin-2-amine], the EC50 (HT29-Lucia AhR cells, 18-24 h, EC50 = concentration to reach half of maximum efficacy of reference compound VAF347) is reported as under 14 nM and the Emax (read-out: HT29 AhR % efficacy) is reported as 275%.
